Our source for the Activity and Ke values is ChEMBL document CHEMBL2331145, “Orvinols with mixed kappa/mu opioid receptor agonist activity” (2013).

By UniProt entry, the sequences of proteins in these tests, tags left out. Where a name states a change or a piece, a line headed by the entry shows the natural chain unless it says otherwise.
UniProt P41144: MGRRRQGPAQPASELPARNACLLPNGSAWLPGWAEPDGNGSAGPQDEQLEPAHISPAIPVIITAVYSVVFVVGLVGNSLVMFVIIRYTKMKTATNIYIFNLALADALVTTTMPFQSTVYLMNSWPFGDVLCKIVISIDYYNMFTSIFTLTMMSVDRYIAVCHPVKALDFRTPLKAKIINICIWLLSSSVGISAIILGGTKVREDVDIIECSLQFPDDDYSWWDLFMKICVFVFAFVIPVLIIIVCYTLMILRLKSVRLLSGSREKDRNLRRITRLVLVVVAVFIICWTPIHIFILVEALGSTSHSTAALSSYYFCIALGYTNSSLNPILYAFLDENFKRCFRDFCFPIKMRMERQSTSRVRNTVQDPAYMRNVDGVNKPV

For test [1], the target named is Kappa-type opioid receptor (Cavia porcellus) (UniProt P41144). Nature of the test: Agonist activity at kappa opioid receptor in guinea pig ileum assessed as inhibition of electrically-stimulated muscle contraction in presence of MOR antagonist CTAP.
Test [2] has the same target. Kind of test: Agonist activity at kappa opioid receptor in guinea pig ileum assessed as inhibition of electrically-stimulated muscle contraction in presence of KOR antagonist norBNI.

Calls of active or inactive are those of the source. The rule behind the calls is not given here.

As for `CO[C@@]12CC[C@@]3(C[C@@H]1[C@](C)(O)C(C)(C)C)[C@H]1Cc4ccc(O)c5c4[C@@]3(CCN1CC1CC1)[C@H]2O5`, the result in test [1] and in test [2] was Active. Moreover, the Ke in test [2] was determined as 1.8 nM.
